Source: patent publication US7855233B2 (Teva Pharmaceutical Industries, Ltd., priority 2009, dated 2010)

How the values were obtained:
[1] = Aqueous / water solubility
[2] = Table 8c, from references; cited from earlier work

Substance | aqueous solubility (in words) [1] | Hygroscopicity by KF [2]
rasagiline citrate | highest water solubility | 
Rasagiline Tartrate |  | Not hygroscopic
